Source: patent US11084814B2, “Pyrido[3, 4-d]pyrimidine derivative and pharmaceutically acceptable salt thereof” (Teijin Pharma Limited, priority 2016, dated 2021)

Chains of the proteins cited; added tags and fusions are not shown.
UniProt P11802, whole entry: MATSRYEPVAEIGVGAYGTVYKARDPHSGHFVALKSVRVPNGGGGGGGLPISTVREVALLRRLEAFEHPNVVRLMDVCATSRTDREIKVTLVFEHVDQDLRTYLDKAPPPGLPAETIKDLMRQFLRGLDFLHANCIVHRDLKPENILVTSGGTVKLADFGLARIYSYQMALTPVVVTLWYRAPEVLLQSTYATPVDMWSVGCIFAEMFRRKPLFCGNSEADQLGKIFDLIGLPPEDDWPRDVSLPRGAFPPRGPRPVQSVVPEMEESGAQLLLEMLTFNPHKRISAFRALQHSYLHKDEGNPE
UniProt P30281, whole entry partner: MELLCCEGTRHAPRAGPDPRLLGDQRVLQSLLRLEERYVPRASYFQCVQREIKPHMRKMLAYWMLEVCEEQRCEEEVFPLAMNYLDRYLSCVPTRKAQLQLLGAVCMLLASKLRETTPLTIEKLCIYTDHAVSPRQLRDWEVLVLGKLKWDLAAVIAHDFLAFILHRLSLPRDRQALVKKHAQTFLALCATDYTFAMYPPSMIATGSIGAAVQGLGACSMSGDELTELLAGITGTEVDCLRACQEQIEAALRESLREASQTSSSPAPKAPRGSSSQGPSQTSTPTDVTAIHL

What was measured:
[1] = molecular target: CDK2/cyclin A2 (Homo sapiens, UniProt P24941); assay: Human CDK2/cyclin A2 inhibitory activity (QS S Assist CDK2/Cyclin A2_FP Kit, IMAP fluorescent polarization); details: read-out: CDK2 Activity symbol
Protocol: Human CDK2/Cyclin A2 Inhibitory Activity
(§1) Each compound was analyzed for CDK2/cyclin A2 inhibitory activity with an assay kit (QS S Assist CDK2/Cyclin A2_FP Kit, available from Carna Biosciences, Inc.). This assay kit determines kinase activity on the basis of the IMAP technology by Molecular Devices. Specifically, the kinase activity is determined through quantification of a variation in fluorescent polarization caused by binding of a kinase-phosphorylated fluorescent substance to an IMAP-binding reagent.
An assay buffer was prepared by 10-fold dilution of the 10× assay buffer attached to the kit with distilled water, and each solution was prepared with the assay buffer. The assay buffer contained 20 mM HEPES (pH 7.4), 0.01% Tween 20, and 2 mM dithiothreitol. A test compound solution was prepared by dilution of the test compound with dimethyl sulfoxide (DMSO) to a concentration 100 times higher than the final concentration and then 25-fold dilution with the assay buffer to a concentration four times higher than the final concentration. An ATP/substrate/Metal solution was prepared by five-fold dilution of the 5×ATP/substrate/Metal solution attached to the kit with the assay buffer. An enzyme solution was prepared by dilution of the CDK2/cyclin A2 attached to the kit with the assay buffer to a concentration twice higher than the final concentration (final concentration of CDK2/cyclin A2: 2.5 ng/well). A detection reagent was prepared by five-fold dilution of 5×IMAP-binding buffer A with distilled water and 400-fold dilution of the IMAP-binding reagent with the diluted buffer.
(§2) The test compound solution (5 μL/well) and the ATP/substrate/Metal solution (5 μL/well) were added to a 384-well plate, and the enzyme solution or the assay buffer (10 μL/well) was added to the plate (total amount of the reaction mixture: 20 μL/well) for initiation of enzymatic reaction. […] Subsequently, fluorescent polarization was determined with a microplate reader at an excitation wavelength of 485 nm and an emission wavelength of 535 nm. […]

[2] = molecular target: CDK4/cyclin D3 (Homo sapiens, UniProt P11802); assay: Human CDK4/cyclin D3 inhibitory activity (QS S Assist CDK4/Cyclin D3_FP Kit, IMAP fluorescent polarization); details: read-out: CDK4 Activity symbol
Protocol: Human CDK4/Cyclin D3 Inhibitory Activity
as §1, with “CDK4/cyclin D3” for “CDK2/cyclin A2”, “CDK4/Cyclin D3_FP” for “CDK2/Cyclin A2_FP”
Each solution was prepared with the 10× assay buffer attached to the kit or a separately prepared assay buffer having the same composition as the assay buffer attached to the kit. An assay buffer was prepared by 10-fold dilution of the 10× assay buffer with distilled water. The assay buffer contains 20 mM HEPES (pH 7.4), 0.01% Tween20, and 2 mM dithiothreitol. A test compound solution was prepared by dilution of the test compound with dimethyl sulfoxide (DMSO) to a concentration 100 times higher than the final concentration and then 25-fold dilution with the assay buffer to a concentration four times higher than the final concentration. An ATP/substrate/Metal solution was prepared by five-fold dilution of the 5×ATP/substrate/Metal solution attached to the kit with the assay buffer. An enzyme solution was prepared by dilution of the CDK4/cyclin D3 attached to the kit with the assay buffer to a concentration twice higher than the final concentration (final concentration of CDK4/cyclin D3: 12.5 to 25 ng/well). […]
as §2

Row | SMILES | IC50 [1] [nM] | IC50 [2] [nM]
1 | C[C@@H](O)c1cc2cnc(Nc3ccc(N4CCNCC4=O)cn3)nc2c(C2CC2)n1 | > 100 | < 10
2 | C[C@@H](O)c1cc2cnc(Nc3ccc(CN4CCN(CCO)CC4)cn3)nc2c(C2CC2)n1 | > 100 | 10 to 100
3 | C[C@@H](O)CN1CCN(Cc2ccc(Nc3ncc4cc([C@@H](C)O)nc(N5CCCCC5)c4n3)nc2)CC1 | > 100 | < 10
